The text below walks through data of patent publication US9539323B2, “Methods and compositions for malic enzyme 2 (ME2) as a target for cancer therapy” (Beth Israel Deaconess Medical Center, Inc., priority 2010, dated 2017).

In this assay the test system is K562 cells. Put plainly: Cell death assessed by flow cytometry. The assay is classed as cell-based, human. The conditions noted are these: K562, 0.1 mM AOA plus 2 mM α-KG, 48 h. As to the method: A: Cells were treated with different concentrations of amino-oxyacetate and expression levels of the erythroid marker glycophorin A (GPA) on the surface of K562 cells were assessed using a mouse FITC-conjugated anti-human glycophorin A antibody. Each histogram is representative of three experiments. B: K562 cells with or without ME2 knockdown were incubated with different concentrations of AOA for 72 h. Cell death was assessed by flow cytometry. Top: pLKO; Bottom: shME2-3. […] C: Cells were treated with different concentrations of malate and expression levels of the erythroid marker glycophorin A on the surface of K562 cells were assessed using a mouse FITC-conjugated anti-human glycophorin A antibody. Each histogram is representative of three experiments.
K562 cells with or without ME2 knockdown were incubated with 0.1 mM AOA plus 2 mM α-KG for 48 h. Cell death was assessed by flow cytometry. A: pLKO K562 cells without any treatment. B: pLKO K562 cells treated with 0.1 mM AOA for 48 h. C: pLKO K562 cells treated with 0.1 mM AOA combined with 2 mM α-KG.
In general terms: In flow cytometry, cells or beads pass a laser one at a time.

With α-ketoglutarate, the “rescue of AOA mediated cell death” value is “could rescue AOA mediated cell death”.
